Settings: in n-butanol, 308.15 K

Structure (SMILES): O=Cc1ccc([N+](=O)[O-])cc1
- solubility (mole fraction): 0.0251

— BigSolDB 2.1
